Measurements published in ChEMBL document CHEMBL1124715 (J Med Chem, 1990).

Chains of the proteins cited; added tags and fusions are not shown. Lines headed by an entry give the natural chain unless they say otherwise; changes in a name come on top.
UniProt P30994: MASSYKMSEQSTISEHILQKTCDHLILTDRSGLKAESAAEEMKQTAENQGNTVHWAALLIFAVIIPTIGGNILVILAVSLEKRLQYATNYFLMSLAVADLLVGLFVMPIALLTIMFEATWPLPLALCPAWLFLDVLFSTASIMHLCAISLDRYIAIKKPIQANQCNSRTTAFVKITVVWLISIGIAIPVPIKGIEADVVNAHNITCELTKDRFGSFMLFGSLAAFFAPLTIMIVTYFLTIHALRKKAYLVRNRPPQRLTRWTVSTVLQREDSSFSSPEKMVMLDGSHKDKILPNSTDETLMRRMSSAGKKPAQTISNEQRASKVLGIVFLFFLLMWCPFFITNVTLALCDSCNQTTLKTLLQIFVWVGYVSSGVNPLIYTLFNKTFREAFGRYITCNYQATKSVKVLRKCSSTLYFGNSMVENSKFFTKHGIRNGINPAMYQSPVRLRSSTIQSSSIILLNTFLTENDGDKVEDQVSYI
UniProt P08909: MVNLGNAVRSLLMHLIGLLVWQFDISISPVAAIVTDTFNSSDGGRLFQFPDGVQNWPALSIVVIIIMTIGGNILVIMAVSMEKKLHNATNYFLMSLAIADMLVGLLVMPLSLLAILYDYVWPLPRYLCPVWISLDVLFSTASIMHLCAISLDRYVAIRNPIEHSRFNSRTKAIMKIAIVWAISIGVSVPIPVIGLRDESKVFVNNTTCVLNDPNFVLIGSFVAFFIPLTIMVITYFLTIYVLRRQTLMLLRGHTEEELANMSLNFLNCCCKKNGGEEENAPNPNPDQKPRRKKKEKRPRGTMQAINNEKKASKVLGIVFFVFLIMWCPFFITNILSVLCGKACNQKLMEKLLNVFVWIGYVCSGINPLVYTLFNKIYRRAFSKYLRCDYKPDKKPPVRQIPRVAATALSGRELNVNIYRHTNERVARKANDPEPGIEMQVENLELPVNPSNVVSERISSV
UniProt P14842: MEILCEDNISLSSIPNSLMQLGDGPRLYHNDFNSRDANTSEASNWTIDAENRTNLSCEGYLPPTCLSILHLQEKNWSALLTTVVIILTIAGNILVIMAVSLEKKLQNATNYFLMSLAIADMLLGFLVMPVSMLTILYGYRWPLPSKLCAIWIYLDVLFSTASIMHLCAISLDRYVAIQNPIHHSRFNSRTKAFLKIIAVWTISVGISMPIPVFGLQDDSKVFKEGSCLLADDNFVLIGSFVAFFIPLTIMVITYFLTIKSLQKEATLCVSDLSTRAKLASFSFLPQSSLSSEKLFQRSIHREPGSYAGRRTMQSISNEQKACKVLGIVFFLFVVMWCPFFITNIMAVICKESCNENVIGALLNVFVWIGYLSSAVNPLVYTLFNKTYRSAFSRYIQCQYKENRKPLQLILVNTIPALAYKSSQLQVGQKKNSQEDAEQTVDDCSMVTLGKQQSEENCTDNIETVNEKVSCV

Target: Serotonin 2 (5-HT2) receptor (Rattus norvegicus, UniProt P30994+P08909+P14842)
Assay: Binding affinity against 5-hydroxytryptamine 2 receptor of rat frontal cortex using [3H]ketanserin radioligand
Format: tissue-based

COc1cc(OC)c(OC)cc1CC(C)N (stereo unspecified)
Ki: 1.25 µM
